Laboratory results reported in patent US20260345621A1, “GABAA RECEPTOR MODULATORS AND USES THEREOF” (Engrail Therapeutics, Inc., priority 2022, published 2026).

Test: Multiple ascending dose study, safety and tolerability
Conditions: 0.5-5.0 mg, twelve days

SMILES: CC(C)(O)c1cnn2c(-c3ccc(F)c(-c4c(F)cccc4C#N)c3)cnc2n1 [Compound 1, 2′,6-difluoro-5′-(3-(2-hydroxypropan-2-yl)imidazo[1,2-b][1,2,4]triazin-7-yl)-[1,1′-biphenyl]-2-carbonitrile]
- deaths, SAEs, or TEAEs leading to discontinuation: No deaths, SAEs, or TEAEs leading to discontinuation
